## Yeast mating assay B: variants of the scFv Ab-14

The measurements come from Li et al. 2023 (doi:10.1038/s41467-023-39022-2) through the FLAb antibody collection.

All variants were tested on one target, the spike HR2 peptide PDVDLGDISGINAS (SARS-CoV-2).

Ab-14 is the parent antibody, in scFv form: VH, then a (GGGGS)3 linker, then VL. The heavy chain is unchanged in all variants.
VH: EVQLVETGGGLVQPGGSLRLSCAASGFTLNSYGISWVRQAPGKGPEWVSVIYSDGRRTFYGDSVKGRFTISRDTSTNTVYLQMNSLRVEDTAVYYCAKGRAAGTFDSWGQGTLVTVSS
VL: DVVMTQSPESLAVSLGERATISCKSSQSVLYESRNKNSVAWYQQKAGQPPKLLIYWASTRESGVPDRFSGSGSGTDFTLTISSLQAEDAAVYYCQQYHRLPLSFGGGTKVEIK

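The starting antibody came from a phage panning campaign against this peptide. The variants were designed computationally from a first round of random CDR variants and then made and measured. Their group label is 14L_En_HC (En: ensemble of fine-tuned language models; HC: hill climbing; a sequence that several methods proposed may carry one label only). In AlphaSeq, yeast of one mating type display the scFv and yeast of the other type display the target. Mating (16 h, 30 °C) was followed by selection of diploids and sequencing of their barcodes. Read counts were normalised to the haploid input and turned into Kd by a linear fit to BCL2-family pairs of known affinity, for each replicate. Mating was done six times.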

Each variant is given by its three light chain CDRs, as the data file delimits them; those of the parent are KSSQSVLYESRNKNSVA, WASTRES, QQYHRLPLS.
Scale: log10 of Kd in nM, estimated from mating counts; low values are strong binders.
Replicates are averaged; those with no signal do not enter the mean.
"nd" marks a missing value. The strain was present, yet no cells mated with the target were sequenced in that replicate, which points to weak or no binding.
Of ten entries with the parent sequence, four were seen in most replicates (averages 0.34 to 2.37), three in one and three in none, so single entries are noisy.

CDR-L1,CDR-L2,CDR-L3,"log10 Kd, replicates",mean log10 Kd (nM),control signals
IISDLTMYGSRNVNSVA,DLSTRGS,QQYHRLPLS,0.63 0.24 0.21 0.10 0.08 0.43,0.28,1 of 18 (2.29)
TISQSAHMESHNKNNVA,DLNLRGQ,QQYDRLPLS,nd -0.57 nd -0.88 0.58 0.08,-0.20,0 of 18
KIAATVLYESGAANSVA,QNSTREE,QQYHRLPLS,1.55 1.65 1.65 0.96 2.30 2.30,1.74,0 of 18
KIGGVTNGISKNKNSVA,EQSTRED,QQYNRLPLS,0.83 0.67 0.32 0.74 0.40 0.67,0.60,0 of 18
KLRMMTLTGGYFKNSVA,QAETREN,QSYHRLPLS,0.85 0.41 0.49 0.60 0.71 0.94,0.67,0 of 18
MMSMGSLGGMRAKNNVA,QEETREK,QQYHRLPLI,0.99 0.60 0.38 0.34 1.45 0.66,0.74,1 of 18 (3.88)
KLSISGVHESIDKKSIA,ERSTREN,QQYHRLPLS,0.60 0.73 0.13 0.36 0.28 0.66,0.46,2 of 18 (2.97)
KISFQYRYEQLSKNSIA,EAVTRLK,QQYHRLPLS,0.48 0.62 0.48 0.59 0.62 0.75,0.59,1 of 18 (2.15)
IISQVDGYLMHNTNSIA,DQQTRGS,QQYDRLPLS,0.53 0.85 0.80 0.75 0.64 0.73,0.72,0 of 18
KISQVAMTTGKLKNSVA,NAYTRVQ,QQYHRLPLS,0.66 0.69 0.39 0.47 0.47 0.67,0.56,1 of 18 (4.34)
HLSDLVKQESRNTNSVA,DNSTRGS,QQYDRLPLS,0.98 2.56 1.99 1.50 1.40 1.63,1.68,0 of 18
SFSQSVLYESVHRNNVA,QTSTRES,QQYDHLPLS,0.81 0.48 0.62 0.39 0.50 0.76,0.60,2 of 18 (3.60)
KISMLYNFESTNKNSIA,EMTTRES,QHYHRLPLS,1.78 1.76 1.42 1.75 1.30 1.92,1.66,1 of 18 (2.24)
ILSQSVLMGSHLKNSVA,QASTRFQ,QQYHRLPLM,0.73 0.34 0.47 0.23 0.48 0.52,0.46,0 of 18
MLSDTVMQGSYYRNSVA,QESTRAD,QQYHRLPLS,0.20 0.21 0.23 -0.19 -0.02 0.11,0.09,0 of 18
RLSEISHFESKKKNSVA,ENSTREE,QQYDHLPLS,nd 2.06 1.38 1.28 1.44 1.32,1.50,1 of 18 (2.32)
KISYMGEHFSTNHSAIA,QAETREQ,QQYHRLPIS,0.88 0.96 1.22 1.49 0.92 0.97,1.07,0 of 18
TLTQSVGMESHSKNSVA,DLSTRGS,QQYHRLPLS,0.35 0.41 0.23 0.23 0.23 0.31,0.29,1 of 18 (2.39)
KLRQLSHIESFNKNNVA,EMTTRES,QSYDRLPLS,-0.11 0.00 -0.05 -0.28 -0.14 0.06,-0.09,0 of 18
MISQLFMYGSRNYNSIA,QASTREK,QQYDHLPLI,1.46 1.01 1.24 1.58 1.34 0.95,1.26,1 of 18 (2.88)
HLSYSVDLESVHKNSIA,DLMTRES,QQYHRLPLS,0.74 -0.26 -0.61 -0.52 0.09 0.04,-0.09,0 of 18
HISMMVGTKGYKKNSVA,NAETRED,QQYHRLPLS,0.66 0.31 0.28 0.38 -0.02 0.70,0.38,0 of 18
MISDLTMEGSRNKNSVA,DLSTRGH,QQYHRLPLS,0.03 -0.14 -0.39 -0.16 -0.19 0.10,-0.12,1 of 18 (2.81)
KISMMSTIESITHNSVA,QTSTREK,QQYDRLPLS,0.60 0.82 1.17 0.56 0.49 1.26,0.82,1 of 18 (2.18)
KIGGVTNGISRSKNSVA,EQSTRED,QQYDRLPLV,0.81 1.30 0.55 1.06 0.81 0.80,0.89,4 of 18 (2.12)
TISQSTYIETFNKNNVA,QTSTREE,QDYDRLPLS,0.74 0.15 0.72 0.32 0.61 0.67,0.53,2 of 18 (3.38)
KLSATYRFETQNKNNIA,EMTTRES,QCYHRLPLS,1.53 2.53 1.38 1.36 1.92 1.68,1.73,2 of 18 (2.24)
QLLMATMQGQYNRNSVA,HAETRED,QSYHRLPLS,nd 2.04 0.51 1.77 1.14 2.00,1.49,2 of 18 (1.93)
MISQSFLIGMKAKNSIA,QTSTREE,QQYDRLPLI,0.44 0.35 0.30 0.26 0.11 0.23,0.28,0 of 18
KLSWSVNFFGHAINSVA,EMETREN,QQYDRLPLS,1.05 1.09 0.83 1.72 1.67 1.56,1.32,0 of 18
IITQSVMSESKNKRNVA,NTSERMD,QQYDRLPLI,0.36 0.54 0.29 0.32 0.25 0.43,0.36,1 of 18 (2.34)
TIGQVMHYDSRNKNSVA,QTSTREE,QDYDRLPLS,1.42 1.19 0.14 1.09 nd 1.27,1.02,0 of 18
TIGAATFEESRNKNSVA,EMSLREN,QSYNRLPLS,0.74 1.08 0.84 1.31 0.70 0.97,0.94,0 of 18
MLSDLVKMGVRNTNSVA,DNSTRGE,QQYDRLPLS,2.19 1.88 2.37 nd 2.14 1.69,2.05,0 of 18
MLSISHQVESINKSNVA,EMVTRES,QQYDRLPLS,nd 2.14 nd nd 2.47 2.36,2.32,0 of 18
KLLQTVMNETMNRNNVA,HMTTRED,QQYHRLPLS,0.67 0.81 0.61 0.62 0.89 0.66,0.71,0 of 18
KIGLVTNGISFSTNSVA,EQSTRNN,QQYDRLPLS,0.73 2.29 1.80 2.15 1.71 2.82,1.92,0 of 18
KISQMSSIESITHNSVA,QTSTRES,QQYDRLPLS,0.65 1.06 0.79 0.43 0.45 0.99,0.73,2 of 18 (2.90)
TISTLMRYETSLKNAIA,NAQTREN,QQYHRLPIS,0.02 0.49 -0.04 0.25 0.36 -0.46,0.10,0 of 18
ILSQSVLMGMHLKNSVA,QATTRFD,QQYHRLPLM,0.94 0.67 0.86 0.65 0.78 0.65,0.76,0 of 18
KISMMVGTKGGARNSVA,NEETRYD,QQYHRLPLS,0.10 0.07 -0.25 -0.42 -0.19 -0.03,-0.12,2 of 18 (2.90)
KLPLATMVESVSKNNVA,ELSTRGS,QQYHRLPLS,1.96 nd nd 0.95 1.46 1.89,1.57,0 of 18
IFSQSVLMGNLTKNSVA,QTSTRES,QQYHRLPLI,1.31 2.57 1.20 2.42 2.14 2.16,1.97,1 of 18 (2.24)
KISQMVTYESTWHNAIA,QVSEREE,QQYHRLPLS,1.08 0.80 1.00 0.89 0.68 1.06,0.92,1 of 18 (2.78)
KISMSVTFENRNKNSVA,ENSTRES,QSYHRLPLS,nd nd 1.85 nd nd nd,1.85,1 of 18 (2.16)
TISQMFLGEQRNRNSVA,QASTRES,QSYDRLPLS,0.91 0.93 0.50 0.39 0.51 0.55,0.63,2 of 18 (2.50)
TISGSANYESTNKNSVA,ELTTRGS,QQYVRLPLS,0.91 0.36 0.84 1.32 1.08 0.57,0.85,0 of 18
ILYDSVGTLSRNGNSVA,DNSTRES,QQYDRLPLS,1.24 2.30 1.84 3.03 2.34 1.77,2.09,3 of 18 (2.36)
SISQMSTIESITHNSVA,QTSTRES,QQYDRLPLS,0.92 1.18 0.59 0.66 1.76 1.07,1.03,1 of 18 (2.14)
SITQLVGYGQRNKNSVA,QMETREN,QQYDRLPLS,-0.04 0.21 0.22 0.19 0.04 0.19,0.14,0 of 18
IFSQSVLMGNLTKNSVA,QASTRFS,QQYHRLPLI,1.61 2.14 1.66 1.84 1.33 1.85,1.74,1 of 18 (2.47)
KISMSYRYESQETNSIA,EMSTREE,QSYHRLPLS,1.37 1.17 1.56 1.37 1.50 1.38,1.39,2 of 18 (2.61)

Extract of 9 entries:

{"CDR-L1": "MLSDLVKMGVRNTNSVA", "CDR-L2": "DNSTRGE", "CDR-L3": "QQYDRLPLS", "log10 Kd, replicates": "2.19 1.88 2.37 nd 2.14 1.69", "mean log10 Kd (nM)": "2.05", "control signals": "0 of 18"}
{"CDR-L1": "TISQMFLGEQRNRNSVA", "CDR-L2": "QASTRES", "CDR-L3": "QSYDRLPLS", "log10 Kd, replicates": "0.91 0.93 0.50 0.39 0.51 0.55", "mean log10 Kd (nM)": "0.63", "control signals": "2 of 18 (2.50)"}
{"CDR-L1": "MISQSFLIGMKAKNSIA", "CDR-L2": "QTSTREE", "CDR-L3": "QQYDRLPLI", "log10 Kd, replicates": "0.44 0.35 0.30 0.26 0.11 0.23", "mean log10 Kd (nM)": "0.28", "control signals": "0 of 18"}
{"CDR-L1": "KIGLVTNGISFSTNSVA", "CDR-L2": "EQSTRNN", "CDR-L3": "QQYDRLPLS", "log10 Kd, replicates": "0.73 2.29 1.80 2.15 1.71 2.82", "mean log10 Kd (nM)": "1.92", "control signals": "0 of 18"}
{"CDR-L1": "HLSDLVKQESRNTNSVA", "CDR-L2": "DNSTRGS", "CDR-L3": "QQYDRLPLS", "log10 Kd, replicates": "0.98 2.56 1.99 1.50 1.40 1.63", "mean log10 Kd (nM)": "1.68", "control signals": "0 of 18"}
{"CDR-L1": "TISQSTYIETFNKNNVA", "CDR-L2": "QTSTREE", "CDR-L3": "QDYDRLPLS", "log10 Kd, replicates": "0.74 0.15 0.72 0.32 0.61 0.67", "mean log10 Kd (nM)": "0.53", "control signals": "2 of 18 (3.38)"}
{"CDR-L1": "SFSQSVLYESVHRNNVA", "CDR-L2": "QTSTRES", "CDR-L3": "QQYDHLPLS", "log10 Kd, replicates": "0.81 0.48 0.62 0.39 0.50 0.76", "mean log10 Kd (nM)": "0.60", "control signals": "2 of 18 (3.60)"}
{"CDR-L1": "KLPLATMVESVSKNNVA", "CDR-L2": "ELSTRGS", "CDR-L3": "QQYHRLPLS", "log10 Kd, replicates": "1.96 nd nd 0.95 1.46 1.89", "mean log10 Kd (nM)": "1.57", "control signals": "0 of 18"}
{"CDR-L1": "IISDLTMYGSRNVNSVA", "CDR-L2": "DLSTRGS", "CDR-L3": "QQYHRLPLS", "log10 Kd, replicates": "0.63 0.24 0.21 0.10 0.08 0.43", "mean log10 Kd (nM)": "0.28", "control signals": "1 of 18 (2.29)"}

A sequence measured in both rounds can read differently, since the two assays cover different ranges.
Empty control strains, which show no peptide, gave a signal in 4% of pairings with all light chain designs; the median was 2.64 and 95% of these signals were weaker than 1.59. No background was subtracted. For each scFv, signals with the empty controls are counted beside the result, with their mean in brackets.
In the paper, a design with two or fewer of six values counts as a poor binder.